## scFv variants of Ab-14 (heavy chain) against a SARS-CoV-2 spike peptide

Data: MIT Lincoln Laboratory AlphaSeq set, Li et al. 2023, doi:10.1038/s41467-023-39022-2, as distributed in FLAb.

The target is the same throughout: PDVDLGDISGINAS, from the HR2 region of SARS-CoV-2 spike.

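The parent was found by panning a naive human phage display library on the peptide. These sequences belong to a second round, designed from the earlier measurements on random variants of the parent. Their group label is 14H_En_Gibbs (En: ensemble of fine-tuned language models; Gibbs: Gibbs sampling). Affinity was read by AlphaSeq, a pooled yeast mating assay with surface-displayed partners. Pairs that bind mate more often; barcode pairs of the diploids are counted by sequencing. Each replicate has its own calibration line, from reference interactions of the BCL2 family. Mating was done six times.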

Parent scFv Ab-14: VH joined to VL by the linker GGGGSGGGGSGGGGS. Changes lie in the heavy chain CDRs alone.
VH: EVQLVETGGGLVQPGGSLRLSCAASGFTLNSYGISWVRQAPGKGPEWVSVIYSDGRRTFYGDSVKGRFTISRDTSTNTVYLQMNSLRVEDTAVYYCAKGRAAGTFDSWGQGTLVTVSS
VL: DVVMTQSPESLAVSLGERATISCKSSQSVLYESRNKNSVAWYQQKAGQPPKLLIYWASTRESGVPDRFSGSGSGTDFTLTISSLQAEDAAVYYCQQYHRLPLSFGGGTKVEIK

The parent's heavy chain CDRs are GFTLNSYGIS, VIYSDGRRTFYGDSVK, GRAAGTFDS; each variant's own CDRs replace them letter for letter.
Numbers give log10(Kd / nM), so 0 is 1 nM and 3 is 1 µM. Smaller is tighter.
A pair that was not seen in that replicate is written "nd"; this usually means weak binding, but a binder can also be missed.
Of ten entries with the parent sequence, four were seen in most replicates (averages 0.34 to 2.37), three in one and three in none, so single entries are noisy.

CDR-H1 | CDR-H2 | CDR-H3 | replicates, log10 nM | empty controls
GKALDEYGIS | VIYADGKRTFYSNTVK | GEDGFFYDQ | nd / nd / nd / nd / nd / nd | 2/18 (2.93)
GFHLDEYGIS | VIYADGMRTQYADQVK | GNLVATVMT | nd / nd / nd / nd / nd / nd | 1/18 (1.15)
GFQLDEYGIS | VIYADGERTHYSNDVK | GTEGGTFQQ | 0.77 / 0.73 / 1.65 / 0.80 / 0.95 / 1.08 | 0/18
GFDLNEYGIS | VIYADGVRVAYQNQVK | GNINGSFTF | nd / nd / nd / nd / nd / nd | 0/18
GFSIDEYGIS | VIYADGLRQHYANAVK | GEAAGTFDT | nd / 1.79 / 1.04 / 2.15 / 2.12 / 1.62 | 0/18
GFNLAEYGIS | VIYADGRRVAYANAVK | GKNGMFFSF | nd / nd / nd / 0.35 / nd / nd | 0/18
GFNLDEYGIS | VIYADGSRQFYVNTFK | GKDVGLNVM | nd / nd / nd / nd / nd / nd | 0/18
GFNLSEYGIS | VIYADGMRSEYADNVK | GHKGNTFID | nd / nd / nd / nd / nd / nd | 0/18
GNDIEEYGIS | VIYADGQRVNAASQFK | GKQAGTFNL | nd / nd / nd / nd / nd / nd | 0/18
GFQLNEYGIS | VIYADGIRSEYADKVK | GGINSSFGV | nd / nd / nd / nd / nd / nd | 0/18
GFDLNEYGIS | VIYADGHRTQYSNNVK | GGQAGIGLS | nd / nd / 2.01 / nd / nd / nd | 0/18
GFSLDEMGIS | VIYADGQRTAYQASVK | GQNIVNVFV | nd / nd / nd / nd / nd / nd | 0/18
GFDLQEYGIS | VIYADGNRYAYTNSVK | GTQAGSLIV | nd / nd / nd / nd / nd / nd | 0/18
GFDLNEYGIS | VIYADGKRTAYLQNVK | GEVAGFDQY | nd / nd / nd / nd / nd / nd | 0/18
GFNLNEYGIS | VIYADGNRNAYADSFK | GLHANFFII | nd / nd / nd / nd / nd / nd | 0/18
GFGLDEYGIS | VIYADGNRQMYTDSVK | GNNLMLVSV | nd / nd / nd / nd / nd / nd | 0/18
GFQIDEYGIS | VIYADGKRSGYKNTVK | GNFNISGSI | 1.03 / 0.84 / 0.44 / 0.91 / 0.22 / 1.17 | 2/18 (2.96)
GKLLDEYGIS | VIYADGLRMVYANSVK | GNLTDTLLV | nd / nd / nd / nd / nd / nd | 0/18
GFDVEKYGIS | VIYADGYRSAYASNVK | GGEAGTFHV | 2.20 / nd / 1.42 / 1.74 / 2.29 / 3.07 | 0/18
GYDLVEYGIS | VIYADGQRTMYADTVK | GNHGGIIDV | nd / nd / nd / nd / nd / nd | 1/18 (1.45)
GFELTEYGIS | VIYADGHRSFVTDTVK | GQQAGAFNV | nd / 2.16 / nd / nd / 1.29 / 1.84 | 0/18
GFNLEEYGIS | VIYADGVRSSYIEDVK | GQWNADFIV | nd / nd / nd / nd / nd / nd | 0/18
GFDVDEYGIS | VIYADGFRTSYTADVK | GSQVGNGLV | nd / nd / 2.41 / nd / nd / nd | 0/18
GFDLNEYGIS | VIYADGQRRAAANTVK | GGAVGGQLD | nd / nd / nd / 3.33 / 2.43 / nd | 1/18 (0.83)
GFSLDEYGIS | VIYADGIRRVYVDKVK | GQYGGDFIE | nd / nd / nd / nd / nd / nd | 0/18
GNTLDEYGIS | VIYADGMRKAYKNKFK | GMVTGTFDQ | nd / nd / nd / nd / nd / nd | 0/18
GFDLDEYGIS | VIYADGMRSYYADSVK | GTNGGTIEA | nd / nd / nd / nd / nd / nd | 0/18
GFKIDEYGIS | VIYADGMRAHYSDAVK | GVHGFNVVM | nd / nd / nd / nd / nd / nd | 0/18
GFDLNEYGIS | VIYADGVRSFYADNAK | GNAGIFAEV | nd / nd / nd / nd / nd / nd | 0/18
GKSLDEYGIS | VIYADGTRAFYTDNVK | GLISMVFGL | nd / nd / nd / nd / nd / nd | 0/18
GFDLEEYGIS | VIYADGRRVSYSQSVK | GVYSGTHYV | nd / nd / nd / nd / nd / nd | 0/18
GFQIDEYGIS | VIYADGMRSGYKNSVK | NGFNVSGIV | nd / nd / nd / 2.42 / nd / nd | 0/18
GFSLDEYGIS | VIYADGIRQHYSDQVK | GVVFGNVIF | nd / nd / nd / nd / nd / nd | 0/18
GFNLDEYGIS | VIYADGIRTQYKDQVK | GGGKMHNLT | nd / nd / nd / nd / 2.48 / nd | 0/18
EFQIQDYGIS | VIYADGSRTAYAESVK | GNMGGTFST | nd / nd / nd / nd / 1.12 / 1.53 | 0/18
GFDLQEYGIS | VIYADGLRTAYGNSVK | GQSNALTTV | 0.17 / 0.96 / 0.26 / 0.03 / -0.07 / 0.73 | 0/18
GFNLDEYGIS | VIYADGIREHYVDDVK | GKHGGFKLD | nd / nd / nd / nd / nd / nd | 0/18
GFDIDEFGIS | VIYADGSRQVYQDNVK | GVGTGTFTD | nd / nd / nd / nd / nd / nd | 0/18

Excerpt, the final 5 entries:

| CDR-H1 | CDR-H2 | CDR-H3 | replicates, log10 nM | empty controls |
|---|---|---|---|---|
| GFNLDEYGIS | VIYADGIRTQYKDQVK | GGGKMHNLT | nd / nd / nd / nd / 2.48 / nd | 0/18 |
| EFQIQDYGIS | VIYADGSRTAYAESVK | GNMGGTFST | nd / nd / nd / nd / 1.12 / 1.53 | 0/18 |
| GFDLQEYGIS | VIYADGLRTAYGNSVK | GQSNALTTV | 0.17 / 0.96 / 0.26 / 0.03 / -0.07 / 0.73 | 0/18 |
| GFNLDEYGIS | VIYADGIREHYVDDVK | GKHGGFKLD | nd / nd / nd / nd / nd / nd | 0/18 |
| GFDIDEFGIS | VIYADGSRQVYQDNVK | GVGTGTFTD | nd / nd / nd / nd / nd / nd | 0/18 |

Values of this round are not directly comparable with the first-round values of the same sequences.
In the paper, a design with two or fewer of six values counts as a poor binder.
Background: pairings of all heavy chain designs with three empty control strains gave a value in 1% of cases (median 2.08, 5th percentile 0.84). Values in that range, when seen in few replicates, are hard to tell from nonspecific mating. The control count says in how many pairings with the empty strains this scFv gave a signal, with their mean in brackets.